# Test system: SSTR2 N276A and F294A mutants
# Details: N276A or F294A, 9 min administration
structure (smiles),measurement,value
C[C@@H](O)[C@@H]1NC(=O)[C@H](CCCCN)NC(=O)[C@@H](Cc2c[nH]c3ccccc23)NC(=O)[C@H](Cc2ccccc2)NC(=O)[C@@H](NC(=O)[C@H](N)Cc2ccccc2)CSSC[C@@H](C(=O)N[C@H](CO)[C@@H](C)O)NC1=O [octreotide],FlAsH-BRET signal versus wild-type,decreased

# Reference: publication PMC9944328 (Nature Communications, 2023)
